Data published in PubChem BioAssay AID588391 (Broad Institute, 2011).
The entries are a selection whose mix differs from that of the whole data set. Some of these compounds have results that are not shown, active ones among them. Activity calls are given as the source filed them.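 How the source made its calls: active means mean inhibition across replicates of 30% or more, whatever share of single replicates reach that level; inconclusive means mean inhibition below 30% while every single replicate reaches 30%; inactive means the rest.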

Sequences of proteins named here, by UniProt entry; tags and fusion partners are left off.
UniProt P07237, whole entry: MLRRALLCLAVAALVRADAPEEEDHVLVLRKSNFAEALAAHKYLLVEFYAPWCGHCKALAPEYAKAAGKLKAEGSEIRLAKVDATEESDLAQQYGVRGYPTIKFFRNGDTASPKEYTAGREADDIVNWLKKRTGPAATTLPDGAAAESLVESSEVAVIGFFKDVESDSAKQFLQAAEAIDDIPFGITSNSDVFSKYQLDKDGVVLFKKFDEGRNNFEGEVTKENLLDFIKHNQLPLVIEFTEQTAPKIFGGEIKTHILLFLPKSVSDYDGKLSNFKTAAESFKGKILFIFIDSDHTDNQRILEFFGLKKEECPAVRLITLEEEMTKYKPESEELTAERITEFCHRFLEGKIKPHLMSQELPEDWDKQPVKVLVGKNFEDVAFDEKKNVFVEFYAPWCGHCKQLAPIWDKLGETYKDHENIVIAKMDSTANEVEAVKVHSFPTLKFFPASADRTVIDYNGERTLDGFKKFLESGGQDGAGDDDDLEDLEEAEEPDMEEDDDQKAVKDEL

Molecular target: Protein disulfide-isomerase (Homo sapiens) (UniProt P07237)
Experiment: inhibitors of human PDI, primary screen, biochemical, turbidity, single point, plate reader (AID 588391);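 further: absorbance from insulin aggregation driven by PDI reduction with DTT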
Conditions: PDI insulin aggregation turbidity, A650, 90 min; at 10 µM; stronger effect = higher value

**Q.** With `COc1ccc(C(=O)NCC2(N(C)C)CCCCC2)cc1` as the compound, how does the inhibition read?
**A.** inactive: -3.98%

**Q.** With `Cc1cc(C(=O)NCC2(N3CCCCC3)CCCCC2)ccc1[N+](=O)[O-]` as the compound, how does the inhibition read?
**A.** inactive: -69.8%

**Q.** With `CCN1CCCC(OC(=O)C2(O)c3ccccc3C=Cc3ccccc32)C1` (stereo unspecified) as the compound, how does the inhibition read?
**A.** inactive: -2.31%

**Q.** Which inhibition does the source give for `O=C(NCC1(N2CCCCC2)CCCCC1)c1cccc(Br)c1` here?
**A.** inactive: 7.41%

**Q.** With `C=CCN1CCN(CCOC(=O)C(O)(c2ccccc2)c2ccccc2)CC1` as the compound, how does the inhibition read?
**A.** inactive: -1.68%

**Q.** How did the inhibition turn out when `O=C(NCC1(N2CCCCC2)CCCCC1)c1cc(F)c(F)cc1Cl` was run?
**A.** inactive: -40.8%

**Q.** For `Cc1ccccc1C(=O)NCC1(N2CCCCC2)CCCCC1`, which inhibition is on record?
**A.** inactive: -14.4%

**Q.** How did the inhibition turn out when `CN(C)C1CCCC1OC(=O)C(O)(c1ccccc1)c1ccccc1` (stereo unspecified) was run?
**A.** inactive: -5.33%

**Q.** `CN(C)c1ccc(C(=O)NCC2(N(C)C)CCCCC2)cc1` was tested. Which inhibition did it give?
**A.** inactive: 13.1%

**Q.** Which inhibition does the source give for `Cc1ccc(C(=O)NCC2(N3CCCCC3)CCCCC2)cc1` here?
**A.** inactive: 3.56%

**Q.** `CCN(CC)CC(C)C(C)OC(=O)C(O)(c1ccccc1)c1ccccc1` (stereo unspecified) was tested. Which inhibition did it give?
**A.** inactive: 3.19%

**Q.** With `COc1cc(SC)ccc1C(=O)NCC1(N(C)C)CCCCC1` as the compound, how does the inhibition read?
**A.** inactive: -1.52%

**Q.** Which inhibition does the source give for `CC(C)N1C(=O)CC2(CCN(CCOC(=O)C(O)(c3ccccc3)c3ccccc3)CC2)C1=O` here?
**A.** inactive: -2.01%

**Q.** Which inhibition does the source give for `CN1[C@@H]2CC[C@H]1CC(OC(=O)C(O)(c1ccccc1)c1ccccc1)C2` (stereo partly specified) here?
**A.** inactive: -2.13%

**Q.** Which inhibition does the source give for `O=C(NCC1(N2CCCCC2)CCCCC1)c1cc([N+](=O)[O-])ccc1Cl` here?
**A.** inactive: 8.09%

**Q.** For `CC(C)Oc1ccc(C(=O)NCC2(N(C)C)CCCCC2)cc1`, which inhibition is on record?
**A.** inactive: -17.1%

**Q.** Which inhibition does the source give for `O=C(OCCN1CCCC1)C(O)(c1ccccc1)c1ccccc1` here?
**A.** inactive: -0.846%

**Q.** With `CN(C)c1cccc(C(=O)NCC2(N(C)C)CCCCC2)c1` as the compound, how does the inhibition read?
**A.** inactive: 0.72%

**Q.** With `C=C(C)C#CC(O)(C(=O)OC1CCN(C)CC1)c1ccccc1` (stereo unspecified) as the compound, how does the inhibition read?
**A.** inactive: 3.68%

**Q.** With `COc1ccc(Br)c(C(=O)NCC2(N3CCCCC3)CCCCC2)c1` as the compound, how does the inhibition read?
**A.** inactive: -1.63%

**Q.** How did the inhibition turn out when `O=C(OC1CN2CCC1CC2)C(CO)(c1ccccc1)c1ccccc1` (stereo unspecified) was run?
**A.** inactive: 2.69%

**Q.** For `O=C(NCC1(N2CCCCC2)CCCCC1)c1cccc(Cl)c1`, which inhibition is on record?
**A.** inactive: 6.54%

**Q.** How did the inhibition turn out when `COc1cccc(C(=O)NCC2(N3CCCCC3)CCCCC2)c1` was run?
**A.** inactive: 8.05%

**Q.** `COc1ccc(Cl)cc1C(=O)NCC1(N(C)C)CCCCC1` was tested. Which inhibition did it give?
**A.** inactive: 7.33%

**Q.** For `COc1cc(C(=O)NCC2(N(C)C)CCCCC2)c([N+](=O)[O-])cc1OC`, which inhibition is on record?
**A.** inactive: -0.393%

**Q.** For `CN(C)C1(CNC(=O)c2ccc(Br)cc2)CCCCC1`, which inhibition is on record?
**A.** inactive: 14.8%
